{"source": "patent US20220373534A1", "about": "“HUMAN NASOPHARYNGEAL CARCINOMA CELLS DERIVED FROM PATIENT DERIVED XENOGRAFT AND USES THEREOF” (Chang Gung Memorial Hospital, Linkou, priority 2021, published 2022)", "tested_on": "NPC PDX-B13", "experiment": "In vivo study of tumor volume in the NPC PDX-B13 mouse model", "design": "species or system NOD/SCID mice", "settings": "week 6, read from FIG. 4", "procedure": "NPC cell lines, C666-1 (EBV positive) and HK-1 (EBV negative), were maintained in RPMI containing 10% fetal bovine serum (FBS). A cell growth assay and animal studies were conducted as described by CL Hsu et al (“Application of a Patient-Derived Xenograft Model in Cytolytic Viral Activation Therapy for Nasopharyngeal Carcinoma.” Oncotarget 6, no. 31 (2015): 31323-34). All experiments involving laboratory animals followed the guidelines for animal experiments of Chang Gung Memorial Hospital (CGMH) and were approved by the IACUC of CGMH.\nPDX models were generated as follows: NPC tumor samples were obtained from patients with local recurrence or metastasis undergoing biopsy or surgical resection. Each sample was immediately cut into smaller pieces of approximately 3-5 mm in diameter and subcutaneously implanted into the flank regions of anesthetized NOD/SCID mice. The xenograft was excised and reimplanted in small pieces into the next passage after the tumor reached 1-2 cm in diameter. The nomenclature system for our NPC PDX was NPC PDX-metastasized tissue (abbreviation)-patient number. Accordingly, the NPC PDX-ST1 and PDX-B13 corresponded to NPC PDX-soft tissue and NPC PDX-bone in reference, see Table 1 below. […]", "data": [{"substance": "cetuximab [ERB]", "values": [{"measurement": "inhibit PDX-B13 tumor growth (reduce tumor volume)", "result": "approximately 30%"}]}]}
